From ChEMBL document CHEMBL2311273, “Discovery of potent, selective multidrug and toxin extrusion transporter 1 (MATE1, SLC47A1) inhibitors through prescription drug profiling and computational modeling” (J Med Chem, 2013)

Columns and labels:
Assay type in all cases: cell-based
[1] = biological target: T1, Multidrug and toxin extrusion protein 1 (Homo sapiens, UniProt Q96FL8); assay: Inhibition of human MATE1-mediated ASP+ uptake expressed in HEK293 cells after 1.5 mins by fluorescence assay
T1 sequence (Q96FL8 whole entry): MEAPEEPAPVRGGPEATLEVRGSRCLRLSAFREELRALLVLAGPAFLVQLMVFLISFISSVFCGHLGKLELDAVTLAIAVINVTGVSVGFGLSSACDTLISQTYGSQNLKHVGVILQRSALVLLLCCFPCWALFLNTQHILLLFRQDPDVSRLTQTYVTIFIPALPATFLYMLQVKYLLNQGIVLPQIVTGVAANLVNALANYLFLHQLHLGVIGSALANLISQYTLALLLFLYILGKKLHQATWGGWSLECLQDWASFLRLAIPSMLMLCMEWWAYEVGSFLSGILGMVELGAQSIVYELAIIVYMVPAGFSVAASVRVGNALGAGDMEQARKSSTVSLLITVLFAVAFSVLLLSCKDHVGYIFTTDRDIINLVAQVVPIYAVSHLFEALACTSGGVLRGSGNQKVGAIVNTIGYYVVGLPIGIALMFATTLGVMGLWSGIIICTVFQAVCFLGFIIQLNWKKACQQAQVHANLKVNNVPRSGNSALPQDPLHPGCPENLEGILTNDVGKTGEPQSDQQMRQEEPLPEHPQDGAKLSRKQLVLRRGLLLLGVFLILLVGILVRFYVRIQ

[2] = biological target: T2, Multidrug and toxin extrusion protein 2 (Homo sapiens, UniProt Q86VL8); assay: Inhibition of human MATE2K-mediated ASP+ uptake expressed in HEK293 cells after 1.5 mins by fluorescence assay
T2 sequence (Q86VL8 whole entry): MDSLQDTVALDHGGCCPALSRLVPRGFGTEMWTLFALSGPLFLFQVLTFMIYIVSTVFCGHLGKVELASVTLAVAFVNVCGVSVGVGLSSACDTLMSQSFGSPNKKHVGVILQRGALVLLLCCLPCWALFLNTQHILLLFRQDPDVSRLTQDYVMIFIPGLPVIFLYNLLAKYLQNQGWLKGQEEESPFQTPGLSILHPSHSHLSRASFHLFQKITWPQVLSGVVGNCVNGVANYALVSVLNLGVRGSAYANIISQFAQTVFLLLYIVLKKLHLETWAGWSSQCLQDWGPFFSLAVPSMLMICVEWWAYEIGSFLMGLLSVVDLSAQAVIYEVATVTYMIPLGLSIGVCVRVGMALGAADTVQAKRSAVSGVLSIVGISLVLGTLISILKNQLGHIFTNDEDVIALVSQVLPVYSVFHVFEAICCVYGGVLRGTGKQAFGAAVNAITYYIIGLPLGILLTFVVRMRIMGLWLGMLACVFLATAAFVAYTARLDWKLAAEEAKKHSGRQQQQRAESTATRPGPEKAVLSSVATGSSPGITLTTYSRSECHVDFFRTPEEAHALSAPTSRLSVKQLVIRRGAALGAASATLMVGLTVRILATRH

[3] = biological target: T2, Multidrug and toxin extrusion protein 2; assay: Inhibition of human MATE2K-mediated ASP+ uptake expressed in HEK293 cells up to 500 uM after 1.5 mins by fluorescence assay

| SMILES | IC50 [1] [µM] | IC50 [2] [µM] | IC50 [3] [µM] |
| --- | --- | --- | --- |
| Oc1c(Cl)cc(Cl)cc1Sc1cc(Cl)cc(Cl)c1O [BITHIONOL] | 5.2 | – | – |
| CN/C(=N/CCSCc1nc[nH]c1C)NC#N [CIMETIDINE] | 1.2 | – | – |
| C[C@]12CCC(=O)C=C1CC[C@@H]1[C@@H]2C(=O)C[C@@]2(C)[C@H]1CC[C@]2(O)C(=O)CO [CORTISONE] | 21.4 | – | – |
| O=C(O)c1cccnc1 [NIACIN] | > 500 | – | – |
| COc1ccc2c(c1OC)C(=O)O[C@@H]2[C@H]1c2c(cc3c(c2OC)OCO3)CCN1C [NOSCAPINE] | 34.5 | – | – |
| Cc1nccn1CC1CCc2c(c3ccccc3n2C)C1=O (centres undefined) [ONDANSETRON] | 0.16 | 0.3 | 0.16 |
| CNC(=C[N+](=O)[O-])NCCSCc1ccc(CN(C)C)o1 [RANITIDINE] | 8.3 | – | – |
